How the values were obtained:
[1] = In vitro stability in PBS (radio-HPLC); format: physicochemical; conditions: 37°C; for Radiochemical purity (%) after incubation in PBS: 370 KBq in 200 μL PBS
Description: (§1) 10 μL 370 KBq [^68Ga] Ga-NOTA-MAL-FSH1 in saline was incubated in 200 μL PBS or 200 μL human serum for 30, 60, and 120 min at 37°C, respectively. The stability of the labeled peptide in PBS was determined by directly injecting an aliquot of the solution into the HPLC at the preselected time points.

[2] = format: in vitro ADME, human
Description: as §1
The serum was first mixed with 200 μL acetonitrile to precipitate the proteins. Subsequently, after centrifugation, supernatant was collected and analyzed by radio-HPLC [18]. Protein-binding fraction was calculated by dividing the radioactivity of the precipitation layer by the total activity used.

in vivo [3] = assay: in vivo; design: species or system mice; conditions: male, athymic nude, mouse, 740 KBq, total radioactivity
Description: (§2) The PC-3 tumor model was generated by subcutaneous injection of 5 × 10^6 cells into the right front flank of male athymic nude mice (4 weeks old, SLAC Laboratory Animal Co., Ltd., China).
(§3) The mice were used for MicroPET studies when the tumor volume reached 100–300 mm^3, which took about 2 weeks. The animal experiments were conducted in compliance with the national regulations and approved by local animal welfare committee.
A number of twenty tumor bearing mice were euthanized with isoflurane (inhalation excess) and dissected at 0.5 h, 1 h, and 2 h (5 mice per time-point) after administrating 740 KBq [^68Ga] Ga-NOTA-MAL-FSH1. To determine the specific uptake, mice were coinjected with the probe with 100 μg of unmodified peptide and sacrificed at 1 h p.i. Normal organs and tumors were collected and weighed. The radioactivity was measured by the γ-counter and the percentage of injected dose per gram of tissue (% ID/g) was determined.

in vivo [4] = assay: in vivo; design: species or system mice; conditions: male, athymic nude, mouse, iv, 3.7 MBq, total radioactivity
Description: as §2, §3
Mice was injected intravenously with 100 μL 3.7 MBq [^68Ga] Ga-NOTA-MAL-FSH1 in saline under isoflurane anesthesia and subjected to MicroPET imaging. The breathing and body temperature of the mice were monitored by BioVet CT1 system (M2M Imaging Corp.). For the blocking experiment, unlabeled peptide (10 mg/kg body weight) and 3.7 MBq [^68Ga] Ga-NOTA-MAL-FSH1 were coinjected into five mice. Static PET images were acquired for 5 min using an Inveon MicroPET/CT scanner (Siemens Medical Solutions) at 30 min, 1 h, and 2 h postinjection. The quantification analysis of PET images was performed using the same method as previously reported.

physchem = format: physicochemical; conditions: pH 7.4
Description: To an Eppendorf tube filled with 0.5 mL of the radiolabeled peptide (10 μL, 370 KBq) in phosphate-buffered saline (pH 7.4), 0.5 mL of octanol was added. After stirring for 2 min at room temperature, the two layers were separated by centrifugation. Radioactivity in 100 μL of each layer was measured in a γ-counter (Perkin-Elmer), and log D values were calculated. Experiments were performed in triplicate.

PC-3 cells = assay: Cell uptake in PC-3 cells; format: cell-based, human; conditions: 370 KBq, 37°C; for Cell uptake: triplicate
Description: PC-3 cells were suspended in 500 μL RPMI 1640 and seeded in 24-well tissues culture plates (1 × 10^5 cells per well) for overnight incubation. After washing with PBS, the cells were incubated with 370 KBq [^68Ga] Ga-NOTA-MAL-FSH1 in the presence or absence of unlabeled FSH1 (to a final concentration of 1 μM) at 37°C for 15, 30, 60, and 120 min, respectively. The cells were washed 3 times with ice-cold PBS and lysed in 0.5 mL of 1.0 M NaOH. The remaining radioactivity was measured in the γ-counter. Cell uptakes were expressed as the percentage of added radioactive dose (% AD). Experiments were performed in triplicate.

CC[C@H](C)[C@H](NC(=O)[C@H](CCCCN)NC(=O)[C@@H]1CCCN1C(=O)[C@H](CCCNC(=N)N)NC(=O)[C@H](C)NC(=O)[C@@H]1CCCN1C(=O)[C@H](CC(=O)O)NC(=O)[C@H](CCCCN)NC(=O)[C@H](Cc1ccc(O)cc1)NC(=O)[C@@H](NC(=O)[C@H](CC(C)C)NC(=O)[C@H](CC(=O)O)NC(=O)[C@H](CCCNC(=N)N)NC(=O)[C@@H](NC(=O)[C@@H](N)Cc1ccc(O)cc1)[C@@H](C)O)C(C)C)C(=O)N[C@@H](CCC(N)=O)C(=O)N[C@@H](CCCCN)C(=O)N[C@H](C(=O)N[C@@H](CSC1CC(=O)N(CCNC(=O)CN2CCN(CC(=O)O)CCN(CC(=O)O)CC2)C1=O)C(=O)N[C@H](C(=O)N[C@@H](Cc1ccccc1)C(=O)O)[C@@H](C)O)[C@@H](C)O (some centres unmarked) [[^68Ga] Ga-NOTA-MAL-FSH1, metal not drawn]
Radiochemical purity (%) after incubation in PBS ([1]; 0.5 h): 96.7 ± 1.3% | Radiochemical purity (%) after incubation in PBS ([1]; 1 h): 97.3 ± 1.2% | Time stable in PBS ([1]; PBS): at least 2 hours | Radiochemical purity (%) after incubation in human serum [2]: 96.6 ± 1.1% | Time stable in human serum [2]: at least 2 hours | tissue uptake at 0.5 h (in vivo [3]; % ID/g in Blood): 0.95 ± 0.01 %ID/g | tissue uptake at 1 h (in vivo [3]; % ID/g in Blood): 0.17 ± 0.02 %ID/g | tissue uptake at 2 h (in vivo [3]; % ID/g in Blood): 0.13 ± 0.06 %ID/g | tissue uptake at 0.5 h (in vivo [3]; % ID/g in Bone): 0.34 ± 0.06 %ID/g | tissue uptake at 1 h (in vivo [3]; % ID/g in Bone): 0.15 ± 0.07 %ID/g | tissue uptake at 2 h (in vivo [3]; % ID/g in Bone): 0.06 ± 0.02 %ID/g | tissue uptake at 0.5 h (in vivo [3]; % ID/g in Brain): 0.07 ± 0.01 %ID/g | tissue uptake at 1 h (in vivo [3]; % ID/g in Brain): 0.03 ± 0.01 %ID/g | tissue uptake at 2 h (in vivo [3]; % ID/g in Brain): 0.02 ± 0.01 %ID/g | tissue uptake at 0.5 h (in vivo [3]; % ID/g in Fat): 0.4 ± 0.01 %ID/g | tissue uptake at 1 h (in vivo [3]; % ID/g in Fat): 0.13 ± 0.06 %ID/g | tissue uptake at 2 h (in vivo [3]; % ID/g in Fat): 0.04 %ID/g | tissue uptake at 0.5 h (in vivo [3]; % ID/g in Heart): 0.35 ± 0.18 %ID/g | tissue uptake at 1 h (in vivo [3]; % ID/g in Heart): 0.14 ± 0.05 %ID/g | tissue uptake at 2 h (in vivo [3]; % ID/g in Heart): 0.05 ± 0.03 %ID/g | tissue uptake at 0.5 h (in vivo [3]; % ID/g in Intestine): 0.32 ± 0.06 %ID/g | tissue uptake at 1 h (in vivo [3]; % ID/g in Intestine): 0.15 ± 0.03 %ID/g | tissue uptake at 2 h (in vivo [3]; % ID/g in Intestine): 0.05 ± 0.02 %ID/g | tissue uptake at 0.5 h (in vivo [3]; % ID/g in Kidney): 25 ± 1.77 %ID/g | tissue uptake at 1 h (in vivo [3]; % ID/g in Kidney): 18.2 ± 2.81 %ID/g | tissue uptake at 2 h (in vivo [3]; % ID/g in Kidney): 13.9 ± 0.83 %ID/g | tissue uptake at 0.5 h (in vivo [3]; % ID/g in Liver): 0.93 ± 0.28 %ID/g | tissue uptake at 1 h (in vivo [3]; % ID/g in Liver): 0.56 ± 0.04 %ID/g | tissue uptake at 2 h (in vivo [3]; % ID/g in Liver): 0.37 ± 0.05 %ID/g | tissue uptake at 0.5 h (in vivo [3]; % ID/g in Lung): 0.67 ± 0.07 %ID/g | tissue uptake at 1 h (in vivo [3]; % ID/g in Lung): 0.14 ± 0.01 %ID/g | tissue uptake at 2 h (in vivo [3]; % ID/g in Lung): 0.1 ± 0.01 %ID/g | tissue uptake at 0.5 h (in vivo [3]; % ID/g in Muscle): 0.26 ± 0.01 %ID/g | tissue uptake at 1 h (in vivo [3]; % ID/g in Muscle): 0.07 ± 0.01 %ID/g | tissue uptake at 2 h (in vivo [3]; % ID/g in Muscle): 0.04 ± 0.02 %ID/g | tissue uptake at 0.5 h (in vivo [3]; % ID/g in Pancreas): 0.94 ± 0.13 %ID/g | tissue uptake at 1 h (in vivo [3]; % ID/g in Pancreas): 0.11 ± 0.03 %ID/g | tissue uptake at 2 h (in vivo [3]; % ID/g in Pancreas): 0.04 ± 0.02 %ID/g | tissue uptake at 0.5 h (in vivo [3]; % ID/g in Spleen): 0.33 ± 0.03 %ID/g | tissue uptake at 1 h (in vivo [3]; % ID/g in Spleen): 0.26 ± 0.08 %ID/g | tissue uptake at 2 h (in vivo [3]; % ID/g in Spleen): 0.11 ± 0.05 %ID/g | tissue uptake at 0.5 h (in vivo [3]; % ID/g in Stomach): 0.4 ± 0.17 %ID/g | tissue uptake at 1 h (in vivo [3]; % ID/g in Stomach): 0.16 ± 0.06 %ID/g | tissue uptake at 2 h (in vivo [3]; % ID/g in Stomach): 0.04 ± 0.01 %ID/g | tissue uptake at 0.5 h (in vivo [3]; % ID/g in Testis): 0.24 ± 0.02 %ID/g | tissue uptake at 1 h (in vivo [3]; % ID/g in Testis): 0.08 ± 0.01 %ID/g | tissue uptake at 2 h (in vivo [3]; % ID/g in Testis): 0.03 ± 0.01 %ID/g | tissue uptake at 0.5 h (in vivo [3]; % ID/g in Tumor): 1.97 ± 0.17 %ID/g | tissue uptake at 1 h (in vivo [3]; % ID/g in Tumor): 1.2 ± 0.27 %ID/g | tissue uptake at 2 h (in vivo [3]; % ID/g in Tumor): 0.97 ± 0.15 %ID/g | tissue to tissue ratio at 0.5 h (in vivo [3]; Ratio of tumor to Blood): 1.77 ± 0.7 | tissue to tissue ratio at 1 h (in vivo [3]; Ratio of tumor to Blood): 7.94 ± 1.35 | tissue to tissue ratio at 2 h (in vivo [3]; Ratio of tumor to Blood): 10.4 ± 1.16 | tissue to tissue ratio at 0.5 h (in vivo [3]; Ratio of tumor to Intestine): 6.68 ± 1.41 | tissue to tissue ratio at 1 h (in vivo [3]; Ratio of tumor to Intestine): 11.2 ± 2.42 | tissue to tissue ratio at 2 h (in vivo [3]; Ratio of tumor to Intestine): 14.2 ± 1.47 | tissue to tissue ratio at 0.5 h (in vivo [3]; Ratio of tumor to Kidney): 0.07 ± 0.01 | tissue to tissue ratio at 1 h (in vivo [3]; Ratio of tumor to Kidney): 0.1 ± 0.02 | tissue to tissue ratio at 2 h (in vivo [3]; Ratio of tumor to Kidney): 0.06 | tissue to tissue ratio at 0.5 h (in vivo [3]; Ratio of tumor to Liver): 2.67 ± 0.5 | tissue to tissue ratio at 1 h (in vivo [3]; Ratio of tumor to Liver): 3.1 ± 0.4 | tissue to tissue ratio at 2 h (in vivo [3]; Ratio of tumor to Liver): 2.84 ± 0.9 | tissue to tissue ratio at 0.5 h (in vivo [3]; Ratio of tumor to Muscle): 7.42 ± 0.46 | tissue to tissue ratio at 1 h (in vivo [3]; Ratio of tumor to Muscle): 26.1 ± 2.99 | tissue to tissue ratio at 2 h (in vivo [3]; Ratio of tumor to Muscle): 36.4 ± 2.54 | tissue uptake at 0.5 h (in vivo [4]; Uptake Kidney): 18.7 ± 3.44 %ID/g | tissue uptake at 1 h (in vivo [4]; Uptake Kidney): 21.1 ± 3.64 %ID/g | tissue uptake at 2 h (in vivo [4]; Uptake Kidney): 14.1 ± 2.76 %ID/g | tissue uptake at 0.5 h (in vivo [4]; Uptake Liver): 0.8 ± 0.07 %ID/g | tissue uptake at 1 h (in vivo [4]; Uptake Liver): 0.44 ± 0.06 %ID/g | tissue uptake at 2 h (in vivo [4]; Uptake Liver): 0.57 ± 0.12 %ID/g | tissue uptake at 0.5 h (in vivo [4]; Uptake Muscle): 0.25 ± 0.02 %ID/g | tissue uptake at 1 h (in vivo [4]; Uptake Muscle): 0.21 ± 0.04 %ID/g | tissue uptake at 2 h (in vivo [4]; Uptake Muscle): 0.13 ± 0.03 %ID/g | tissue uptake at 0.5 h (in vivo [4]; Uptake Tumor): 1.87 ± 0.1 %ID/g | tissue uptake at 1 h (in vivo [4]; Uptake Tumor): 1.26 ± 0.06 %ID/g | tissue uptake at 2 h (in vivo [4]; Uptake Tumor): 0.71 ± 0.1 %ID/g | logD at 2 min (physchem): -3.12 ± 0.05 | Cell uptake (PC-3 cells; 15 min): 1.10 ± 0.15 % AD | Cell uptake (PC-3 cells; 30 min): 1.39 ± 0.20 % AD | Cell uptake (PC-3 cells; 60 min): 1.51 ± 0.19 % AD | Cell uptake in the presence of blocking agent (PC-3 cells; 60 min, with 1 μM unlabeled FSH1, triplicate): 0.30 ± 0.07 % AD | Cell uptake (PC-3 cells; 120 min): 1.52 ± 0.21 % AD
